Results as given in patent publication US11007355B2, “Drug delivery devices and methods for treatment of bladder cancer with oxaliplatin” (TARIS Biomedical LLC, priority 2012, dated 2021).

Assays:
[1] = Oxaliplatin tissue permeability: platinum in blood, urine and tissues after 72-hour bladder perfusion (Example 2); details: terminal concentrations, FIG. 11
Description: (§1) Blood, urine, and tissue samples were collected and analyzed for drug content.
(§2) The perfusate formulation concentration was 0.308 mg/mL. Dose (mg/kg) was calculated as (Dose administered (g) x formulation concentration (mg/mL))/Animal Wt. (kg). The drug solutions were dosed over a 72-hour period into the non-fasted animal's bladder by intra-urinary bladder cannula using an infusion pump.
(§3) Whole blood samples were taken via tailnick or jugular vein cannula at the following time points following the start of perfusion: 0, 4, 8, 24, and 48 hours. Urine was collected pre-dose and for 0-24, 24-48, and 48-72-hour periods post dose.
(§4) Following the 72-hour infusion period the animals were sacrificed, terminal blood samples were taken via the abdominal aorta, and bladder, prostate, ureter, and kidney tissues were collected, weighed, and visually inspected for evidence of tolerability/reaction from exposure to the drug.

male Sprague Dawley rats = details: 72-hour bladder perfusion, 0.308 mg/mL; animal 49
Description: as §1, §2, §3, §4

O=C1[O][Pt]2([NH][C@@H]3CCCC[C@H]3[NH]2)[O]C1=O [oxaliplatin]
bladder:urine ratio [1]: 10%
Observations at necropsy: remaining urothelium (male Sprague Dawley rats): otherwise normal
